# XiGFP reactiv = activators of X-chromosome reactivation in mouse fibroblasts; XiGFP mouse fibroblasts, % GFP-positive cells imaging, 3 d; cells co-treated with 5-aza-dC sensitizer; scaled so ellipticine positive control = 100%; activation, % at 7.58 µM; actives 0.055% (n = 360,000);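 active means mean normalized replicate activation at least 10% and every replicate at or above 10%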;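 further: 0% = median of on-plate neutral control wells and 100% = ellipticine 6 µM median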
#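 material = 68-5-11 XiGFP fibroblast line | medium = DMEM plus 5-aza-dC sensitizer | schedule = 3 days compound exposure | benchmarks = positive control ellipticine, 6 µM final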
# E-sel inducer = induces E-selectin expression in human endothelial cells. P16581. HUVEC E-selectin immunofluorescence imaging; normalized: neutral wells 0, TNF-alpha wells 100. activation, % at 7.58 µM. actives 0.37% (n = 260,000);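 active means mean E-selectin-positive cell signal at least 10% of the positive control, reached in at least 60% of replicates, without over 20% cell loss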
#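 Read-out basis: % PE-positive cells; Test system: HUVEC primary endothelial cells; Technique: immunofluorescence imaging; Dosing: single-point compound dose.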
# Yeast UUG start-1 = alters start codon recognition fidelity in yeast. S. cerevisiae UUG-firefly luciferase reporter, luminescence/redox ratio. 350,000 tested, 0.13% active. activity score, % at 18.7 µM. AID 602363;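 active means replicate mean at a twofold rise or more, about +100% in these data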;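 further: firefly luciferase made from a UUG start codon reports start codon fidelity; reporter light over untreated wells divided by growth signal over untreated wells; some hits fall short of that in this replicate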
# RAD52 anneal inh = blocks human RAD52 DNA annealing; P43351; recombinant RAD52 DNA annealing, FRET fluorescence; inhibition, % at 18.7 µM; actives 0.46% (n = 360,000);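 active means every replicate showing at least 50% inhibition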
# RAD54 inh = RAD54 (human) branch migration inhibition; RAD54 Holliday junction branch migration, FAM/BHQ fluorescence; inhibition, % at 10.4 µM; actives 0.14% (n = 360,000); AID 602329;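 active means mean normalized replicate activity at least 40 and at least half of replicates scoring 40 or more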;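 further: 0% = median of neutral control wells and 100% = median of positive control wells; inhibitors cause a drop in the FAM fluorescence signal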
# Yeast UUG start-2 = yeast start codon fidelity modulation. shares compounds with Yeast UUG start-1. S. cerevisiae UUG-start firefly luciferase, luminescence, 4 h; 100% means double the DMSO signal. activation, % at 38 µM. 540 tested, under 10 active;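 active means signal increase whose fitted curve reaches an absolute level of 40 at a concentration under 10 µM; inactive means activity opposite to the expected increase, or the rest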
# An asterisk follows results filed as active; i = inactive; x = not tested or not shown. Hits are enriched below; roughly 0.73% of the tested compounds scored in any of these assays.
# Keys: A = XiGFP reactiv; B = E-sel inducer; C = Yeast UUG start-1; D = RAD52 anneal inh; E = RAD54 inh; F = Yeast UUG start-2
1: CCN(CC)CC#CC(OC)(c1ccccc1)c1ccccc1
  A = 0; B = x; C = x; D = -4; E = x; F = 0

2: CCS(=O)(=O)N1CC(=O)N2[C@H](C1)[C@@H](c1ccc(C#CCC(C)C)cc1)[C@@H]2CO
  A = 0; B = 0; C = x; D = -2; E = x; F = x

3: CCCC(=O)Nc1ccccc1NC(=O)c1ccc(OC(C)=O)cc1
  A = 0; B = x; C = 444*; D = -2; E = -5; F = 12

4: CCCC(=O)Nc1ccccc1NC(=O)c1ccc(OCC)c(OCC)c1
  A = 0; B = x; C = x; D = 7; E = x; F = x

5: CCN(CC)CCNC(=O)Cc1nn(CC)c(=O)c2ccccc12
  A = x; B = x; C = -1; D = 7; E = -4; F = 6

6: CCN(CC)CCNC(=O)C(C)c1nn(CC)c(=O)c2ccccc12 (stereo unspecified)
  A = x; B = x; C = x; D = -4; E = x; F = -5

7: CCN(CC)CCNC(=O)Cn1nc(Cc2ccccc2)c2ccccc2c1=O
  A = x; B = x; C = -18; D = x; E = -3; F = x

8: C[C@@H]1CN([C@@H](C)CO)C(=O)c2cc(NC(=O)Cn3cnnn3)ccc2O[C@H]1CN(C)C(=O)Nc1ccc(F)cc1
  A = 0; B = 0; C = 6; D = -15; E = -20; F = x

9: COCCCN1C(=O)[C@@]2(Cc3ccccc31)c1ccccc1C(=O)N(Cc1ccccc1)[C@H]2c1ccc(CO)cc1
  A = x; B = x; C = 169*; D = 7; E = 7; F = i

10: CN(C)CCCN1C(=O)[C@@]2(Cc3ccccc31)c1ccccc1C(=O)N(Cc1ccccc1C(F)(F)F)[C@H]2c1ccc(CO)cc1
  A = x; B = x; C = 173*; D = -14; E = -4; F = i

11: C[C@H](CO)N1C[C@H](C)[C@H](CN(C)Cc2ccccc2)Oc2ccc(NC(=O)Nc3ccc(C(F)(F)F)cc3)cc2C1=O
  A = 0; B = 0; C = 3; D = -9; E = -10; F = x

12: O=C(C1CCC1)N1C[C@@H]2[C@H](c3ccccc31)[C@H](CO)N2C(=O)c1ccccc1F
  A = 0; B = 0; C = 195*; D = 7; E = -8; F = i

13: O=C(C1CCC1)N1C[C@H]2[C@@H](c3ccccc31)[C@H](CO)N2C(=O)c1ccccc1
  A = 0; B = 0; C = 101*; D = -5; E = -2; F = i

14: COCCNC(=O)C[C@H]1C[C@@H]2c3cc(NC(=O)Nc4ccc(OC)cc4)ccc3O[C@@H]2[C@H](CO)O1
  A = 1; B = 0; C = 33; D = 12; E = 0; F = x

15: CCC(=O)N(C)C[C@H]1Oc2ncc(C#Cc3ccccc3OC)cc2C(=O)N([C@H](C)CO)C[C@H]1C
  A = -1; B = 0; C = 6; D = 1; E = -11; F = x

16: C[N+]1(CC#CC(O)(c2ccccc2)c2ccccc2)CCCC1
  A = 0; B = 0; C = x; D = -8; E = x; F = 5

17: CC(C)[N+](C)(C)CC#CC(O)(c1ccccc1)c1ccccc1
  A = 0; B = x; C = x; D = 2; E = x; F = 7

18: CCCNC(=O)N1CC2(C1)CN(C(C)=O)[C@@H](CO)c1[nH]c3cc(OC)ccc3c12
  A = 0; B = 0; C = x; D = x; E = x; F = x

19: CN(C)C(=O)c1ccc(-c2ccc([C@@H]3[C@H](C#N)N(C(=O)C4CCC4)[C@H]3CO)cc2)cc1
  A = 0; B = 2; C = 3; D = 3; E = 14; F = x

20: COc1ccc(C2CCCN2C(=S)Nc2cccc(C)c2)cc1OC (stereo unspecified)
  A = 0; B = 3; C = x; D = -21; E = x; F = x

21: COc1ccc(NC(=S)N2CCCC2c2ccc(OC)c(OC)c2)cc1 (stereo unspecified)
  A = 0; B = x; C = 339*; D = -11; E = -9; F = 3

22: CC(=O)N(C)C[C@@H]1Oc2cc(C#C[C@@H](C)O)ccc2S(=O)(=O)N([C@@H](C)CO)C[C@@H]1C
  A = -1; B = 0; C = 121*; D = 8; E = -12; F = i

23: COCC#Cc1ccc2c(c1)O[C@H](CN(C)Cc1cccnc1)[C@@H](C)CN([C@@H](C)CO)S2(=O)=O
  A = 0; B = 0; C = -10; D = 9; E = -7; F = x

24: COCC#Cc1ccc2c(c1)O[C@@H](CN(C)Cc1cccnc1)[C@@H](C)CN([C@@H](C)CO)S2(=O)=O
  A = 1; B = 6; C = 154*; D = 10; E = -21; F = i

25: C/C=C/c1ccc2c(c1)O[C@@H](CN(C)Cc1cccc(F)c1)[C@@H](C)CN([C@H](C)CO)S2(=O)=O
  A = 0; B = -1; C = 105*; D = 6; E = 0; F = i

26: CC(=O)N(C)C[C@@H]1Oc2cc(C#C[C@H](C)O)ccc2S(=O)(=O)N([C@H](C)CO)C[C@@H]1C
  A = 0; B = 0; C = -5; D = -3; E = -2; F = x

27: CC(C)C#Cc1ccc2c(c1)O[C@@H](CN(C)Cc1ccccn1)[C@@H](C)CN([C@H](C)CO)S2(=O)=O
  A = -1; B = 1; C = 61*; D = -1; E = -26; F = i

28: C[C@H](CO)N1C[C@H](C)[C@H](CN(C)C)Oc2cc(-c3cccc(F)c3)ccc2S1(=O)=O
  A = -1; B = 0; C = 5; D = 3; E = -15; F = x

29: COC(=O)c1cn(CC(=O)N2CCC3(CC2)C(=O)NCN3c2ccccc2)nn1
  A = x; B = x; C = 22; D = 1; E = 3; F = x

30: C/C=C/c1ccc2c(c1)O[C@@H](CN(C)Cc1cncnc1)[C@@H](C)CN([C@H](C)CO)S2(=O)=O
  A = -1; B = -1; C = 110*; D = -12; E = 2; F = i

31: C[C@H](O)C#Cc1ccc2c(c1)O[C@H](CN(C)Cc1cncnc1)[C@@H](C)CN([C@@H](C)CO)S2(=O)=O
  A = 0; B = 0; C = 0; D = 1; E = -2; F = x

32: CCC(=O)N(C)C[C@@H]1Oc2cc(C#Cc3ccccc3)ccc2S(=O)(=O)N([C@@H](C)CO)C[C@@H]1C
  A = -1; B = 1; C = 183*; D = -39; E = -2; F = i

33: CCC(=O)N(C)C[C@H]1Oc2cc(C#Cc3ccccc3)ccc2S(=O)(=O)N([C@@H](C)CO)C[C@@H]1C
  A = -1; B = 0; C = -19; D = -6; E = -4; F = x

34: C[C@@H](O)C#Cc1ccc2c(c1)O[C@@H](CN(C)Cc1cncnc1)[C@@H](C)CN([C@@H](C)CO)S2(=O)=O
  A = 0; B = 1; C = 103*; D = -5; E = -14; F = i

35: CC(C)NC(=O)Nc1ccc2c(c1)CC(=O)N([C@H](C)CO)C[C@H](C)[C@@H](CN(C)C(=O)Nc1ccccc1)O2
  A = 1; B = 1; C = 11; D = 3; E = 2; F = x

36: O=C(CNC(=O)c1ccco1)N=Nc1c(O)n(CCc2ccccc2)c2ccccc12
  A = 0; B = 0; C = 229*; D = -7; E = 8; F = 2

37: CCn1c(O)c(N=NC(=O)CNC(=O)Cc2ccccc2)c2ccccc21
  A = 0; B = x; C = -3; D = 3; E = 6; F = x

38: O=C(c1cc(Cl)cc(Cl)c1)N1CCC2CC1c1cc(-c3ccc4c(c3)OCO4)ccc12 (stereo unspecified)
  A = x; B = 0; C = active; D = -13; E = 3; F = 9

39: CC(=O)N1CSCC1C(=O)NNS(=O)(=O)c1ccccc1 (stereo unspecified)
  A = 0; B = x; C = 124*; D = -11; E = 6; F = -6

40: COc1cc(S(=O)(=O)N2CCOCC2)ccc1N
  A = 0; B = x; C = x; D = -12; E = x; F = x

41: COc1cc(S(=O)(=O)N2CCOCC2)ccc1F
  A = x; B = x; C = 196*; D = x; E = -13; F = -1

42: C[C@H]1CN([C@@H](C)CO)C(=O)c2cccc(NS(=O)(=O)c3cccs3)c2O[C@H]1CN(C)S(C)(=O)=O
  A = 0; B = 0; C = -3; D = -7; E = 0; F = x

# In a second layout: results already given.
34	C[C@@H](O)C#Cc1ccc2c(c1)O[C@@H](CN(C)Cc1cncnc1)[C@@H](C)CN([C@@H](C)CO)S2(=O)=O
35	CC(C)NC(=O)Nc1ccc2c(c1)CC(=O)N([C@H](C)CO)C[C@H](C)[C@@H](CN(C)C(=O)Nc1ccccc1)O2

assay / compound	34	35
XiGFP reactiv	0	1
E-sel inducer	1	1
Yeast UUG start-1	103*	11
RAD52 anneal inh	-5	3
RAD54 inh	-14	2
Yeast UUG start-2	i	x

# High-throughput results deposited in PubChem by Broad Institute.
